Values of other authors, collected in patent US20100273808A1 (Millennium Pharmaceticals, Inc., priority 2008, published 2010).

Test system: human Flt-3/ITD-positive AML cancer cells
Settings: preclinical studies; cited from earlier work

Question: With `COc1cc2c(N3CCN(C(=O)Nc4ccc(OC(C)C)cc4)CC3)ncnc2cc1OCCCN1CCCCC1` [4-[6-methoxy-7-(3-piperidin-1-yl-propoxy)quinazolin-4-yl]piperazine-1-carboxylic acid(4-isopropoxyphenyl)-amide] as the compound, how does the “killing of Flt-3/ITD-positive AML cancer cells” value read?
Answer: selectively killed
